Target: T1, Tyrosine-protein kinase BTK (Homo sapiens, UniProt Q06187)
Test: Inhibition of BTK (unknown origin) assessed as log ratio of Kinact/Ki

By UniProt entry, the sequences of proteins in these tests, tags left out. Where a name states a change or a piece, a line headed by the entry shows the natural chain unless it says otherwise.
UniProt Q06187: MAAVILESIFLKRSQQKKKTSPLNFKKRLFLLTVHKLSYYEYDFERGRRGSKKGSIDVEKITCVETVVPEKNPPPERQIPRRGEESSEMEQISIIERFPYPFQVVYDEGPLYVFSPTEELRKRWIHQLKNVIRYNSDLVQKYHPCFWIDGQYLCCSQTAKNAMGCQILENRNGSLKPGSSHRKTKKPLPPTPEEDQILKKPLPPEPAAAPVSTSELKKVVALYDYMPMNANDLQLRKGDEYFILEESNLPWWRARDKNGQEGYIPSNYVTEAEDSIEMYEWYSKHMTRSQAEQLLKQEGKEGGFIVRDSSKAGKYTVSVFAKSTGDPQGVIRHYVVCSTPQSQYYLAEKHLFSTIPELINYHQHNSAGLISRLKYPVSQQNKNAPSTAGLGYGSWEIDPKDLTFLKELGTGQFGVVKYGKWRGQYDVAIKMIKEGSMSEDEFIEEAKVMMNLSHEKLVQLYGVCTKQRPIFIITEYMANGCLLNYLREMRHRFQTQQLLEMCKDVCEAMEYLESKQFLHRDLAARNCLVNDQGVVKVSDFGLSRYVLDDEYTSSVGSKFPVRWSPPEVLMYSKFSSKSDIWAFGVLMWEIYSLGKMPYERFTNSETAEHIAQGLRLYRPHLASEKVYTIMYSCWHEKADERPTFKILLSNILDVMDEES

Row | Compound | log(ratio)
1 | C=CC(=O)N(C)CCOc1cnccc1-c1ccc(CN2CCN(CC3CCC3)CC2=O)c(C)c1 | 3.09
2 | C=CC(=O)N(C)CCOc1cnccc1-c1ccc(CN2CCN(C)CC2=O)c(C)c1 | 1.42
3 | C=CC(=O)N(C)CCOc1cnccc1-c1ccc(CN2CCN(CCC)CC2=O)c(C)c1 | 2.81
4 | C=CC(=O)N(C)CCOc1cnccc1-c1ccc(CN2CCN(C(C)C)CC2=O)c(C)c1 | 2.78
5 | C=CC(=O)N(C)CCOc1cncnc1-c1ccc(CN2CCN(C3CCOC3)CC2=O)c(F)c1 (configuration not stated) | 1.75
6 | C=CC(=O)N(C)CCOc1cncnc1-c1ccc(CN2CCN(CC(C)(C)C)CC2=O)cc1 | 2.37
7 | C=CC(=O)N(C)CCOc1cnccc1-c1ccc(CN2CCN(CC(C)C)CC2=O)c(C)c1 | 3.2
8 | C=CC(=O)N(C)CCOc1c(-c2ccc(CN3CCN(CC(C)C)CC3=O)c(C)c2)ccnc1N | 3.64

Next, values leading:

Row | log(ratio) | Compound
9 | 2.22 | C=CC(=O)N(C)CCOc1cncnc1-c1ccc(CN2CCN(CC(C)(C)C)CC2=O)c(C)c1
10 | 2.79 | C=CC(=O)N(C)CCOc1cncnc1-c1ccc(CN2CCN(CC(C)(C)C)CC2=O)c(F)c1
11 | 2.79 | C=CC(=O)N(C)CCOc1cnccc1-c1ccc(CN2CCN(CC(C)(C)C)CC2=O)c(C)c1
12 | 2.48 | C=CC(=O)N(C)CCOc1cnccc1-c1ccc(CN2CCN(CC)CC2=O)c(C)c1
13 | 3.07 | C=CC(=O)N(C)CCOc1cncnc1-c1ccc(CN2CCN(CC3CCC3)CC2=O)c(C)c1
14 | 3.36 | C=CC(=O)N(C)CCOc1cncnc1-c1ccc(CN2CCN(CC(C)C)CC2=O)c(C)c1
15 | 2.26 | C=CC(=O)N(C)CCOc1cncnc1-c1ccc(CN2CCN(CC3(C)CC3)CC2=O)c(C)c1
16 | 2.46 | C=CC(=O)N(C)CCOc1cncnc1-c1ccc(CN2CCN(CC(F)(F)F)CC2=O)c(C)c1

Target: T1, Tyrosine-protein kinase BTK
Test: Inhibition of BTK (unknown origin) assessed as ratio of Kinact/Ki

Row | Ratio [M⁻¹ s⁻¹] | Compound
17 | 630 | C=CC(=O)N(C)CCOc1cnccc1-c1ccc(CN2CCN(CC(C)(C)C)CC2=O)c(C)c1
